Experimental data taken from patent US9409868B2, “Inhibitors of rho associated protein kinases (ROCK) and methods of use” (H. LEE MOFFITT CANCER CENTER AND RESEARCH INSTITUTE, INC., priority 2012, dated 2016).

By UniProt entry, the sequences of proteins in these tests, tags left out. Where a name states a change or a piece, a line headed by the entry shows the natural chain unless it says otherwise.
UniProt O75116: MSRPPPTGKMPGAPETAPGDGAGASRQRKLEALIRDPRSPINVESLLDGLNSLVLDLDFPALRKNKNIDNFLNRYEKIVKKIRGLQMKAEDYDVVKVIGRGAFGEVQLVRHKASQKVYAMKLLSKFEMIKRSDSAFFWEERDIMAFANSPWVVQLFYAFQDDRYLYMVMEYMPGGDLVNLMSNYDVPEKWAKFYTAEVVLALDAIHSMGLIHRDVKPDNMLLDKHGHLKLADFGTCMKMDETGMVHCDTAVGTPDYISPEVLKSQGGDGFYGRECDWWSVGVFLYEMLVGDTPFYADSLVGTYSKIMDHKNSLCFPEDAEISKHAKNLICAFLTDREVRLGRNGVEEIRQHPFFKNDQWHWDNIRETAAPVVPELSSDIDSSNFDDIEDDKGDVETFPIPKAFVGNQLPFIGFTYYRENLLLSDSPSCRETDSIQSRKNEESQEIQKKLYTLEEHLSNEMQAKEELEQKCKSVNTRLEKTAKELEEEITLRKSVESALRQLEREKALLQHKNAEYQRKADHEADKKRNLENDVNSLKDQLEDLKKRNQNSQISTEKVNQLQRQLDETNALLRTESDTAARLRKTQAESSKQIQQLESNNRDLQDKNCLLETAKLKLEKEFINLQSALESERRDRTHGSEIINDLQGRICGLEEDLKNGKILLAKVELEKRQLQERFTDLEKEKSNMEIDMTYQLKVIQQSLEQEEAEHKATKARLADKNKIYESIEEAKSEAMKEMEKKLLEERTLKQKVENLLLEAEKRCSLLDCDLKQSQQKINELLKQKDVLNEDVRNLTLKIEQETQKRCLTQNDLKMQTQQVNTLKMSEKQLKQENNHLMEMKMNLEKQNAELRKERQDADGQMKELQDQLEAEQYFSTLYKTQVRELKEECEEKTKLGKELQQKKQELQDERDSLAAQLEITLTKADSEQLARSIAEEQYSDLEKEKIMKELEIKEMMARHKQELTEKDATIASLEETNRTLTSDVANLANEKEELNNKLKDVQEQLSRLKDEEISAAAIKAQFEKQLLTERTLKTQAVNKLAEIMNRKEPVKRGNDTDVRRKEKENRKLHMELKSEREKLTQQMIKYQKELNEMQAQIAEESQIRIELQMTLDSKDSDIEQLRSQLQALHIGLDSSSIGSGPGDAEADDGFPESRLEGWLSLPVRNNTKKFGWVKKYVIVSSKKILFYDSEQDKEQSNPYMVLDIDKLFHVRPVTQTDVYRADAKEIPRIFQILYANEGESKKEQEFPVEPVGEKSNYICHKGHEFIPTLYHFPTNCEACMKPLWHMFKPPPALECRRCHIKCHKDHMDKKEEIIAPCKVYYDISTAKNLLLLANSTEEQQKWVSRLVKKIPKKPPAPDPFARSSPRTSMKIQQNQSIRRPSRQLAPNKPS
UniProt Q13464: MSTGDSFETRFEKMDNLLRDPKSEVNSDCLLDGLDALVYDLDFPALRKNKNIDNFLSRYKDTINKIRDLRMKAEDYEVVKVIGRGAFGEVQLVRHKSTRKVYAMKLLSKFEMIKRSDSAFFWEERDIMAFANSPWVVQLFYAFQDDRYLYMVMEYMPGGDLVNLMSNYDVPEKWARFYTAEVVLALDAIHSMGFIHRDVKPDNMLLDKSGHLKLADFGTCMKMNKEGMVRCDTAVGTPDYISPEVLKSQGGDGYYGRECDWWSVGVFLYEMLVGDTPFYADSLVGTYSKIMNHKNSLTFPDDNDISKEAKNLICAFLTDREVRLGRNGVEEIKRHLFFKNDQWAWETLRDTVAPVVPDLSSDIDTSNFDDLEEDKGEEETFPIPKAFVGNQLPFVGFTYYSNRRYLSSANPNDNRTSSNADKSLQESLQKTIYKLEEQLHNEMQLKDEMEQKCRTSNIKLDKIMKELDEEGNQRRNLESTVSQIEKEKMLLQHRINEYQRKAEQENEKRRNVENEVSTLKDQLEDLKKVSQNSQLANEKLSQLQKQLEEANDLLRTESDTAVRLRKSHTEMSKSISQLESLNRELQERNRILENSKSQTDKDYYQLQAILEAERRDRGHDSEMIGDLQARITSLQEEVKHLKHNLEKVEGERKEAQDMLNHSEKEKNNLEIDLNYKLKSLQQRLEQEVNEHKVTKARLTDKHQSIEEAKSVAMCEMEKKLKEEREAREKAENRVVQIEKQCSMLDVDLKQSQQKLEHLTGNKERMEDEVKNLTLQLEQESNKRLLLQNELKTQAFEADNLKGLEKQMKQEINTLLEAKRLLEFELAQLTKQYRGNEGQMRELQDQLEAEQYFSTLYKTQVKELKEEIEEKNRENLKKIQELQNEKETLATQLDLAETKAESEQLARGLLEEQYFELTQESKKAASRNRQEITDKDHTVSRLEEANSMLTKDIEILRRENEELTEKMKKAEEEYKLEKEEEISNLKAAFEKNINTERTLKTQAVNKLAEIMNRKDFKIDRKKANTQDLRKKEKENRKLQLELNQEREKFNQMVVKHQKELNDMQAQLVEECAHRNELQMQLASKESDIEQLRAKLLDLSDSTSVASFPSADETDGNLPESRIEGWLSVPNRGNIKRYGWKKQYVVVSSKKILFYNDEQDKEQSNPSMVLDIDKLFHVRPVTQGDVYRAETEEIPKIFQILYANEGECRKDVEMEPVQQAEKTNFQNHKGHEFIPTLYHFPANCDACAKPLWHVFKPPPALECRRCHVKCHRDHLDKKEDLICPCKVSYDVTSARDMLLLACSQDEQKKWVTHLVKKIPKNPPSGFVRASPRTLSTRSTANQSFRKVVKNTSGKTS

Experiments:
[1] = target: ROCK2 (Homo sapiens (Human), UniProt O75116); test: Z-Lyte FRET kinase assay, ROCK2; format: biochemical
[2] = target: ROCK1 (Homo sapiens (Human), UniProt Q13464); test: Z-Lyte FRET kinase assay, ROCK1; format: biochemical

Nc1ccc2[nH]ncc2c1 [Compound 8, 5-Aminoindazole]
LE (Ligand Efficiency), ROCK2 [1]: 0.53
LE (Ligand Efficiency), ROCK1 [2]: 0.51
